# Reference: PubChem BioAssay (NCI)
# The entries are a selection whose mix differs from that of the whole data set. Some salts or complexes appear as unconnected parts, following the source record. The source holds several records for some structures; these can differ, active in one and inactive in another. Calls of active or inactive are those of the source. No stated cut-off is given here; in the data, active means growth inhibition above about 70%; inactive means the rest.
# Tests used:
# [1] = NCI Yeast Anticancer Drug Screen. Data for the wt1 strain (AID 149);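 further: 0% = growth of vehicle-treated wt1 cultures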; conditions: S. cerevisiae wt1 strain (SPY 50644) growth inhibition, stronger effect = higher value
# How it was run: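 wt1 yeast, compound-treated; % growth inhibition vs vehicle control.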
# [2] = NCI Yeast Anticancer Drug Screen. Data for the rad50 strain (AID 155);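 further: 0% = growth of vehicle-only cultures of the same strain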; conditions: S. cerevisiae rad50 strain growth inhibition, stronger effect = higher value
# [3] = NCI Yeast Anticancer Drug Screen. Data for the mec2-1 strain (AID 157); conditions: S. cerevisiae mec2-1 strain, stronger effect = higher value
# [4] = NCI Yeast Anticancer Drug Screen. Data for the rad14 strain (AID 159);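 further: 0% = growth of vehicle-treated control cultures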; conditions: S. cerevisiae rad14 strain growth inhibition, stronger effect = higher value
# How it was run: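 Test compounds were applied to a repair-deficient yeast strain. Its growth was then compared with that of cultures given vehicle alone, and inhibition was expressed relative to those controls.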
# [5] = NCI Yeast Anticancer Drug Screen. Data for the sgs1 mgt1 strain (AID 161);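 further: 0% = growth of cultures given vehicle only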; conditions: S. cerevisiae sgs1 mgt1 strain, stronger effect = higher value
# [6] = NCI Yeast Anticancer Drug Screen. Data for the cln2 rad14 strain (AID 165);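 further: 0% = growth equal to vehicle treated cultures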; conditions: S. cerevisiae cln2 rad14 strain, stronger effect = higher value
# [7] = NCI Yeast Anticancer Drug Screen. Data for the bub3 strain (AID 167); conditions: S. cerevisiae bub3 mutant strain, stronger effect = higher value
# [8] = NCI Yeast Anticancer Drug Screen. Data for the wt2 strain (AID 169);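 further: 0% = growth of vehicle-treated yeast cultures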; conditions: S. cerevisiae wt2 strain growth inhibition, stronger effect = higher value
# How it was run: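 Against vehicle-treated controls, the growth of yeast exposed to each compound was compared, and the inhibition was recorded.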
# [9] = NCI Yeast Anticancer Drug Screen. Data for the mlh1 rad18 strain (AID 175); conditions: S. cerevisiae mlh1 rad18 strain growth inhibition, stronger effect = higher value
# [10] = at 5.0 µM (retest, dose inferred, filed as 0.5)
# [11] = at 50.0 µM (retest, dose inferred, filed as 5.0)
smiles,measurement,setting,value
Cc1cc2ccccc2cc1C.O=[N+]([O-])c1cc([N+](=O)[O-])cc([N+](=O)[O-])c1,growth inhibition,[1]; at 1.2 µM,inactive: 1%
same,growth inhibition,[1]; at 3.7 µM,inactive: 4%
same,growth inhibition,[1]; at 11.0 µM,inactive: 2%
same,growth inhibition,[1]; at 33.0 µM,inactive: 7%
same,growth inhibition,[1]; at 100.0 µM,inactive: 58%
same,growth inhibition,[2]; at 1.2 µM,inactive: -1%
same,growth inhibition,[2]; at 3.7 µM,inactive: 1%
same,growth inhibition,[2]; [10],inactive: 9%
same,growth inhibition,[2]; at 11.0 µM,inactive: 0%
same,growth inhibition,[2]; at 33.0 µM,inactive: 12%
same,growth inhibition,[2]; [11],active: 99%
same,growth inhibition,[2]; at 50.0 µM,inactive: 11.1%
same,growth inhibition,[2]; at 100.0 µM,active: 75%
same,growth inhibition,[3]; at 1.2 µM,inactive: -2%
same,growth inhibition,[3]; at 3.7 µM,inactive: 2%
same,growth inhibition,[3]; [10],inactive: 11%
same,growth inhibition,[3]; at 11.0 µM,inactive: 7%
same,growth inhibition,[3]; at 33.0 µM,inactive: 25%
same,growth inhibition,[3]; [11],active: 99%
same,growth inhibition,[3]; at 50.0 µM,inactive: 65.5%
same,growth inhibition,[3]; at 100.0 µM,active: 82%
same,growth inhibition,[4]; at 1.2 µM,inactive: 0%
same,growth inhibition,[4]; at 3.7 µM,inactive: 0%
same,growth inhibition,[4]; at 11.0 µM,inactive: 4%
same,growth inhibition,[4]; at 33.0 µM,inactive: 19%
same,growth inhibition,[4]; at 100.0 µM,active: 89%
same,growth inhibition,[5]; [10],inactive: 29%
same,growth inhibition,[5]; [11],active: 99%
same,growth inhibition,[5]; at 50.0 µM,active: 77.5%
same,growth inhibition,[6]; [10],inactive: -6%
same,growth inhibition,[6]; [11],active: 99%
same,growth inhibition,[6]; at 50.0 µM,active: 79.5%
same,growth inhibition,[7]; at 1.2 µM,inactive: -4%
same,growth inhibition,[7]; at 3.7 µM,inactive: -2%
same,growth inhibition,[7]; [10],inactive: 5%
same,growth inhibition,[7]; at 11.0 µM,inactive: -2%
same,growth inhibition,[7]; at 33.0 µM,inactive: 11%
same,growth inhibition,[7]; [11],active: 99%
same,growth inhibition,[7]; at 50.0 µM,active: 93.3%
same,growth inhibition,[7]; at 100.0 µM,active: 71%
same,growth inhibition,[8]; at 1.2 µM,inactive: -1%
same,growth inhibition,[8]; at 3.7 µM,inactive: 1%
same,growth inhibition,[8]; at 11.0 µM,inactive: 2%
same,growth inhibition,[8]; at 33.0 µM,inactive: 10%
same,growth inhibition,[8]; at 100.0 µM,active: 72%
same,growth inhibition,[9]; [10],inactive: 15%
same,growth inhibition,[9]; [11],active: 99%
same,growth inhibition,[9]; at 50.0 µM,active: 78.1%
[Au].[C-]#N.[C-]#N,growth inhibition,[2]; at 1.2 µM,inactive: 6%
same,growth inhibition,[2]; at 3.7 µM,inactive: -9%
same,growth inhibition,[2]; [10],inactive: 18%
same,growth inhibition,[2]; at 11.0 µM,inactive: -10%
same,growth inhibition,[2]; at 33.0 µM,inactive: 4%
same,growth inhibition,[2]; [11],inactive: 41%
same,growth inhibition,[2]; at 50.0 µM,inactive: 6.75%
same,growth inhibition,[2]; at 100.0 µM,inactive: 11%
same,growth inhibition,[3]; at 1.2 µM,inactive: -8%
same,growth inhibition,[3]; at 3.7 µM,inactive: 3%
same,growth inhibition,[3]; [10],inactive: 28%
same,growth inhibition,[3]; at 11.0 µM,inactive: 34%
same,growth inhibition,[3]; at 33.0 µM,active: 92%
same,growth inhibition,[3]; [11],active: 98%
same,growth inhibition,[3]; at 50.0 µM,active: 87.2%
same,growth inhibition,[3]; at 100.0 µM,active: 95%
same,growth inhibition,[5]; [10],inactive: 17%
same,growth inhibition,[5]; [11],inactive: 48%
same,growth inhibition,[5]; at 50.0 µM,inactive: -9.1%
same,growth inhibition,[6]; [10],inactive: 4%
same,growth inhibition,[6]; [11],inactive: 29%
same,growth inhibition,[6]; at 50.0 µM,inactive: -1.2%
same,growth inhibition,[7]; at 1.2 µM,inactive: -2%
same,growth inhibition,[7]; at 3.7 µM,inactive: -9%
same,growth inhibition,[7]; [10],inactive: -8%
same,growth inhibition,[7]; at 11.0 µM,inactive: -18%
same,growth inhibition,[7]; at 33.0 µM,inactive: -16%
same,growth inhibition,[7]; [11],inactive: 5%
same,growth inhibition,[7]; at 50.0 µM,inactive: -20.9%
same,growth inhibition,[7]; at 100.0 µM,inactive: 4%
same,growth inhibition,[9]; [10],inactive: 25%
same,growth inhibition,[9]; [11],inactive: 42%
same,growth inhibition,[9]; at 50.0 µM,inactive: -9.1%
[Au+].[Au+].c1ccc([PH+](c2ccccc2)c2ccccc2)cc1.c1ccc([PH+](c2ccccc2)c2ccccc2)cc1.n1n[n-]c(-c2nnn[n-]2)n1,growth inhibition,[2]; at 1.2 µM,inactive: -2%
same,growth inhibition,[2]; at 3.7 µM,inactive: 53%
same,growth inhibition,[2]; [10],active: 99%
same,growth inhibition,[2]; at 11.0 µM,active: 99%
same,growth inhibition,[2]; at 33.0 µM,active: 99%
same,growth inhibition,[2]; [11],active: 98%
same,growth inhibition,[2]; at 50.0 µM,active: 97.4%
same,growth inhibition,[2]; at 100.0 µM,active: 99%
same,growth inhibition,[3]; at 1.2 µM,inactive: -6%
same,growth inhibition,[3]; at 3.7 µM,active: 80%
same,growth inhibition,[3]; [10],active: 99%
same,growth inhibition,[3]; at 11.0 µM,active: 96%
same,growth inhibition,[3]; at 33.0 µM,active: 98%
same,growth inhibition,[3]; [11],active: 99%
same,growth inhibition,[3]; at 50.0 µM,active: 95.3%
same,growth inhibition,[3]; at 100.0 µM,active: 98%
same,growth inhibition,[5]; [10],active: 98%
same,growth inhibition,[5]; [11],active: 98%
same,growth inhibition,[5]; at 50.0 µM,active: 95.6%
same,growth inhibition,[6]; [10],active: 81%
same,growth inhibition,[6]; [11],active: 98%
same,growth inhibition,[6]; at 50.0 µM,active: 96.6%
same,growth inhibition,[7]; at 1.2 µM,inactive: -14%
same,growth inhibition,[7]; at 3.7 µM,inactive: 14%
same,growth inhibition,[7]; [10],active: 88%
same,growth inhibition,[7]; at 11.0 µM,active: 98%
same,growth inhibition,[7]; at 33.0 µM,active: 99%
same,growth inhibition,[7]; [11],active: 98%
same,growth inhibition,[7]; at 50.0 µM,active: 89.8%
same,growth inhibition,[7]; at 100.0 µM,active: 99%
same,growth inhibition,[9]; [10],active: 98%
same,growth inhibition,[9]; [11],active: 98%
same,growth inhibition,[9]; at 50.0 µM,active: 97.9%
C/C=C/c1cccc2ccccc12.O=[N+]([O-])c1cc([N+](=O)[O-])cc([N+](=O)[O-])c1,growth inhibition,[2]; [10],inactive: 17%
same,growth inhibition,[2]; [11],active: 81%
same,growth inhibition,[2]; at 50.0 µM,active: 99%
same,growth inhibition,[3]; [10],inactive: 12%
same,growth inhibition,[3]; [11],inactive: 68%
same,growth inhibition,[3]; at 50.0 µM,active: 99.6%
same,growth inhibition,[5]; [10],inactive: 26%
same,growth inhibition,[5]; [11],inactive: 55%
same,growth inhibition,[5]; at 50.0 µM,active: 99.5%
same,growth inhibition,[6]; [10],inactive: 16%
same,growth inhibition,[6]; [11],active: 99%
same,growth inhibition,[6]; at 50.0 µM,active: 99.3%
same,growth inhibition,[7]; [10],inactive: 12%
same,growth inhibition,[7]; [11],active: 97%
same,growth inhibition,[7]; at 50.0 µM,active: 96.7%
same,growth inhibition,[9]; [10],inactive: 26%
same,growth inhibition,[9]; [11],active: 99%
same,growth inhibition,[9]; at 50.0 µM,active: 99.4%
Cc1ccc(S[S+](C)c2ccc(C)cc2)cc1.O=[N+]([O-])c1cc([N+](=O)[O-])c(S(=O)(=O)[O-])c([N+](=O)[O-])c1,growth inhibition,[2]; [10],inactive: 4%
same,growth inhibition,[2]; [11],inactive: 25%
same,growth inhibition,[2]; at 50.0 µM,inactive: 39%
same,growth inhibition,[3]; [10],inactive: 20%
same,growth inhibition,[3]; [11],inactive: 44%
same,growth inhibition,[3]; at 50.0 µM,inactive: 15.9%
same,growth inhibition,[5]; [10],inactive: -8%
same,growth inhibition,[5]; [11],inactive: 44%
same,growth inhibition,[5]; at 50.0 µM,inactive: 63.8%
same,growth inhibition,[6]; [10],inactive: -6%
same,growth inhibition,[6]; [11],inactive: 21%
same,growth inhibition,[6]; at 50.0 µM,inactive: 38.6%
same,growth inhibition,[7]; [10],inactive: 10%
same,growth inhibition,[7]; [11],inactive: 44%
same,growth inhibition,[7]; at 50.0 µM,inactive: 46.6%
same,growth inhibition,[9]; [10],inactive: 27%
same,growth inhibition,[9]; [11],inactive: 46%
same,growth inhibition,[9]; at 50.0 µM,inactive: 26.1%
O=[N+]([O-])c1cc([N+](=O)[O-])cc([N+](=O)[O-])c1.c1ccc2cc3c(ccc4ccccc43)cc2c1,growth inhibition,[2]; [10],inactive: 15%
same,growth inhibition,[2]; [11],active: 85%
same,growth inhibition,[2]; at 50.0 µM,active: 89.1%
same,growth inhibition,[3]; [10],inactive: 11%
same,growth inhibition,[3]; [11],active: 94%
same,growth inhibition,[3]; at 50.0 µM,active: 86.5%
same,growth inhibition,[5]; [10],inactive: 36%
same,growth inhibition,[5]; [11],active: 91%
same,growth inhibition,[5]; at 50.0 µM,active: 91.3%
same,growth inhibition,[6]; [10],inactive: 3%
same,growth inhibition,[6]; [11],active: 85%
same,growth inhibition,[6]; at 50.0 µM,active: 83%
same,growth inhibition,[7]; [10],inactive: 23%
same,growth inhibition,[7]; [11],active: 91%
same,growth inhibition,[7]; at 50.0 µM,active: 91%
same,growth inhibition,[9]; [10],inactive: 13%
same,growth inhibition,[9]; [11],active: 91%
same,growth inhibition,[9]; at 50.0 µM,active: 83.2%
